Literature values as cited in PMC4240550 (PLoS ONE, 2014).

Amino acid sequences for entries named in this document (tags omitted).
UniProt Q9HYN5, entry or part of it: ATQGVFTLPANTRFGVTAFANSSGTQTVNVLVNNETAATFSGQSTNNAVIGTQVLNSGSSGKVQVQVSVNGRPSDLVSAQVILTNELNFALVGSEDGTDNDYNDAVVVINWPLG

Target: LecB (Pseudomonas aeruginosa, UniProt Q9HYN5)
Details: ITC; cited from earlier work

In the case of `CO[C@H]1O[C@H](CO)[C@@H](O)[C@H](O)[C@@H]1O` [compound 2, methyl α-D-mannoside], the ΔG is given as -5.66 kcal/mol.
